Antibody variant affinities, Ab-91 heavy chain, assay 2

Target peptide (SARS-CoV-2 spike, HR2 region): PDVDLGDISGINAS

Ab-91 is the parent antibody, in scFv form: VL, then a (GGGGS)3 linker, then VH. The light chain is unchanged in all variants.
VL: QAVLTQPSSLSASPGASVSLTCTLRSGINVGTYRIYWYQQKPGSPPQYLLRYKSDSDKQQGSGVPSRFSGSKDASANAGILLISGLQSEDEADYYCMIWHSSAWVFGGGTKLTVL
VH: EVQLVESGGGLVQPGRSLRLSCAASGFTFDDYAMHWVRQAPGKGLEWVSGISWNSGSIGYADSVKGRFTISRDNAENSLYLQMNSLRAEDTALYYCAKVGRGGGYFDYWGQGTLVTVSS

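The parent was found by panning a naive human phage display library on the peptide. Library AAYL51 holds single substitutions and randomly drawn double and triple substitutions in the CDRs. The scFvs were displayed on barcoded MATa yeast, the peptide on MATalpha yeast. The frequency of each diploid, read from paired DNA barcodes, reflects how well the two displayed proteins bind. A regression on co-assayed BCL2-family reference pairs converts the normalised counts of each replicate to an apparent Kd. There are three technical replicates.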

Positions count from residue 1 of the parent VH; W53T puts T in place of W.
This list gathers variants with a substitution at A61 (VH, numbered from residue 1).
The read-out is the apparent dissociation constant on a log10 scale (nM): the lower, the stronger.
The mean shown is taken over the replicates in which the pair was detected.
"nd" marks a missing value. The strain was present, yet no cells mated with the target were sequenced in any replicate, which points to weak or no binding.
Parent in this assay: reference entry 1.86, copy in this library 0.88.
Empty control strains, which show no peptide, gave a signal in 21% of pairings with library AAYL51; the median was 4.54 and 95% of these signals were weaker than 3.26. No background was subtracted. The control count says in how many pairings with the empty strains this scFv gave a signal.

Variant W53T/S57N/A61F showed 3.75 (3 of 3 replicates; controls 1 of 9).
Variant T28E/A61V showed 1.74 (3 of 3 replicates; controls 0 of 9).
Variant T28A/N54W/A61M showed nd (0 of 3 replicates; controls 1 of 9).
Variant F27C/A61L showed 3.97 (2 of 3 replicates; controls 1 of 9).
Variant G26L/A61Q/Y105G showed 3.59 (2 of 3 replicates; controls 3 of 9).
Variant I58N/A61G showed 2.88 (3 of 3 replicates; controls 1 of 9).
Variant F29D/A61T/S63T showed nd (0 of 3 replicates; controls 1 of 9).
Variant S55I/A61T/G100F showed nd (0 of 3 replicates; controls 0 of 9).
Variant A33K/A61W/V99M showed nd (0 of 3 replicates; controls 0 of 9).
Variant S52C/G56Q/A61F showed 4.57 (1 of 3 replicates; controls 2 of 9).
Variant D30Q/A61C/D107Y showed 1.89 (3 of 3 replicates; controls 1 of 9).
Variant I51Y/A61W/G103E showed 4.75 (2 of 3 replicates; controls 2 of 9).
Variant G50L/S55K/A61V showed nd (0 of 3 replicates; controls 0 of 9).
Variant G59K/A61Y/D107V showed 4.88 (2 of 3 replicates; controls 2 of 9).
Variant A61L/Y105G/D107P showed nd (0 of 3 replicates; controls 2 of 9).
Variant I51M/A61T/D107T showed 5.32 (1 of 3 replicates; controls 1 of 9).
Variant W53V/A61D showed 2.31 (3 of 3 replicates; controls 5 of 9).
Variant A33I/I58D/A61Y showed 6.17 (1 of 3 replicates; controls 2 of 9).
Variant A61N/D62L/F106M showed nd (0 of 3 replicates; controls 0 of 9).
Variant F29E/A61L/K65R showed 6.08 (2 of 3 replicates; controls 4 of 9).
Variant A33R/A61C/G103N showed nd (0 of 3 replicates; controls 2 of 9).
Variant D31F/A61S/Y108F showed 1.64 (3 of 3 replicates; controls 1 of 9).
Variant W53C/A61C showed 3.92 (3 of 3 replicates; controls 1 of 9).
Variant T28C/I58V/A61H showed 0.87 (3 of 3 replicates; controls 1 of 9).
Variant A61Q/V64S showed 4.63 (3 of 3 replicates; controls 9 of 9).
Variant S55F/A61P/D107A showed nd (0 of 3 replicates; controls 0 of 9).
Variant S57N/A61R showed 2.15 (3 of 3 replicates; controls 1 of 9).
Variant A61P showed 4.51 (1 of 3 replicates; controls 7 of 9).
Variant G56E/A61L/R101Q showed 3.83 (1 of 3 replicates; controls 0 of 9).
Variant F29T/A61S/Y105I showed nd (0 of 3 replicates; controls 0 of 9).
Variant A33P/G59L/A61Q showed 3.23 (1 of 3 replicates; controls 0 of 9).

3 of these entries, quoted again:

changes	log10 Kd (nM), mean	replicates with signal	signal with controls
F29E/A61L/K65R	6.08	2/3	4/9
F29D/A61T/S63T	nd	0/3	1/9
A33K/A61W/V99M	nd	0/3	0/9

Source: Engelhart et al. 2022 (doi:10.1038/s41597-022-01779-4), MIT Lincoln Laboratory and A-Alpha Bio; data file from the FLAb repository.